This experiment concerns the target NHERF2_2 PDZ (Homo sapiens, UniProt Q15599). Kind of experiment: Holdup assay. In kind it is binding. As to conditions: composite holdup affinity; 0.00=below quantification threshold; read-out: COMP pKd (converted).

The chains behind the UniProt entries cited, without tags or fusion partners. Residues count along the entry.
UniProt Q15599, 150-230 limits assumed: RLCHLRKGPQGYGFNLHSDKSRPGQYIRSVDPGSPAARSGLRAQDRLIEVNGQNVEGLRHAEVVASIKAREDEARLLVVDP

This note sets out measurements from article PMC9482650, “Quantitative fragmentomics allow affinity mapping of interactomes” (Nature Communications, 2022).

Each structure is given as a SMILES string.

With `CC(C)C[C@H](NC(=O)[C@H](CCCNC(=N)N)NC(=O)[C@@H](NC(=O)[C@H](CC(=O)O)NC(=O)[C@H](CCC(N)=O)NC(=O)[C@@H](NC(=O)[C@H](CCC(=O)O)NC(=O)[C@H](CCC(=O)O)NC(=O)[C@H](CCC(=O)O)NC(=O)[C@@H](N)[C@@H](C)O)C(C)C)[C@@H](C)O)C(=O)O` [CFTR], the Kd is 4.1 µM.
